Measurements from ChEMBL document CHEMBL1123145, “Synthesis of pyrrolizidine alkaloids indicine, intermedine, lycopsamine, and analogues and their N-oxides. Potential antitumor agents” (1985).

Experiments:
P388 [1] = test: Weight difference observed in survivors treated for antitumor activity against P388 Lymphocytic Leukemia system at a dose of 150 mg/kg
P388 [2] = test: Number of Survivors determined for antitumor activity against P388 Lymphocytic Leukemia system on day 5 at a dose of 75 mg/kg (6 out of 6)
P388 [3] = test: Survival rate of the animals determined for antitumor activity against P388 Lymphocytic Leukemia system at a dose of 37.5 mg/kg
P388 [4] = test: Weight difference observed in survivors treated for antitumor activity against P388 Lymphocytic Leukemia system at a dose of 300 mg/kg
P388 [5] = test: Number of Survivors determined for antitumor activity against P388 Lymphocytic Leukemia system on day 5 at a dose of 37.5 mg/kg (6 out of 6)
P388 [6] = test: Number of Survivors determined for antitumor activity against P388 Lymphocytic Leukemia system on day 5 at a dose of 150 mg/kg (6 out of 6)
P388 [7] = test: Survival rate of the animals determined for antitumor activity against P388 Lymphocytic Leukemia system at a dose of 75 mg/kg
P388 [8] = test: Weight difference observed in survivors treated for antitumor activity against P388 Lymphocytic Leukemia system at a dose of 37.5 mg/kg
P388 [9] = test: Survival rate of the animals determined for antitumor activity against P388 Lymphocytic Leukemia system at a dose of 300 mg/kg
P388 [10] = test: Survival rate of the animals determined for antitumor activity against P388 Lymphocytic Leukemia system at a dose of 150 mg/kg
P388 [11] = test: Number of Survivors determined for antitumor activity against P388 Lymphocytic Leukemia system on day 5 at a dose of 300 mg/kg (6 out of 6)
P388 [12] = test: Weight difference observed in survivors treated for antitumor activity against P388 Lymphocytic Leukemia system at a dose of 75 mg/kg

CCC(O)(C(=O)OCC1=CC[N+]2([O-])CCC(O)C12)c1ccccc1 (configuration not stated)
T-C (P388 [1]): -2.1
Survivors (P388 [2]): 6
T/C (P388 [3]): 146%
T-C (P388 [4]): -2.2
Survivors (P388 [5]): 6
Survivors (P388 [6]): 6
T/C (P388 [7]): 149%
T-C (P388 [8]): -1.1
T/C (P388 [9]): 166%
T/C (P388 [10]): 157%
Survivors (P388 [11]): 6
T-C (P388 [12]): -1.7
